Target: T1, VIM-2 (UniProt Q5U7L7)
T1 construct: His tag (C); made in house; host or cells: E. coli DH5α
Test: biochemical
Protocol: The PCR product was integrated into pTrcHis2 TOPO vector (Invitrogen), and then introduced into E. coli DH5α (TOYOBO) for culture under the induction of 0.5 mM Isopropyl-β-D-(−)-thiogalactopyranoside (Wako) at 37° C. for 3 h to express IMP-1. After recovering the bacterial cells, the periplasmic fraction was extracted by ocmotic shock with sucrose to refine the IMP-1 by Ni-NTA Slurry (QIAGEN) with the His tag at the C-terminus.
In order to determine the inhibitory activity of metallo-β-lactamase, a 50 mM HEPES (pH 7.5) buffer (referred to hereinafter as “buffer”) was used, and nitrocefin (Oxoid) with the final concentration of 100 μM was used as a substrate. A test drug (material to be tested: compound having an Example Number shown in Table 2) was added to each well of a 96-well plate, into which nitrocefin was added and mixed. Then, IMP-1 or VIM-2 was added to each well in the final concentration of 1 nM or 1.5 nM, respectively to react the mixture at room temperature for 20 min. In this case, ZnSO4 was added in the final concentration of 100 μM in order to exclude the inhibitory effect by the chelate effect. Enzyme inhibiting activity was determined by measuring the hydrolysis activity of nitrocefin at a wave length of 490 nm with ARVOsx microplate reader (Wallac).

## CC/C(C(=O)O)=C(\CC)C(=O)O [Example 4, 2,3-diethylmaleic acid disodium]
  IC50: 13 µM

Source: patent publication US9260375B2, “Metallo-β-lactamase inhibitors” (priority 2005, dated 2016)
